# Antibody variant affinities, Ab-14 light chain, assay 1

Data: MIT Lincoln Laboratory AlphaSeq set, Engelhart et al. 2022, doi:10.1038/s41597-022-01779-4, as distributed in FLAb.

All variants were tested on one target, the spike HR2 peptide PDVDLGDISGINAS (SARS-CoV-2).

Parent: Ab-14, a human scFv built as VH, three GGGGS repeats, VL. Only the CDRs of the light chain vary.
VH: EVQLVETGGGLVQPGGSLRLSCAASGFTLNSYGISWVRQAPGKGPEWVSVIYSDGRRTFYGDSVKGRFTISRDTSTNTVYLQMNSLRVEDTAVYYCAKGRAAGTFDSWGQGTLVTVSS
VL: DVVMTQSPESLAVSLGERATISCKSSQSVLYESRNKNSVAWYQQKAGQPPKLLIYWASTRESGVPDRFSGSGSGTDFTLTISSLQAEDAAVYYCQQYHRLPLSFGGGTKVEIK

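In library AAYL50, one, two or three CDR residues were substituted; doubles and triples were drawn at random. In AlphaSeq, yeast of one mating type display the scFv and yeast of the other type display the target. The frequency of each diploid, read from paired DNA barcodes, reflects how well the two displayed proteins bind. Each replicate has its own calibration line, from reference interactions of the BCL2 family. Each pool was mated in three replicate cultures.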

Substitutions are numbered in sequence along the VL above, starting at 1 (not Kabat).
Every variant below is changed at S62 of the VL (sequential numbering).
Each Kd is an estimate from the mating assay, the geometric mean of the replicates in which the pair was seen; lower is stronger.
A pair that was not seen in any replicate is written "nd"; this usually means weak binding, but a binder can also be missed.
Background: pairings of library AAYL50 with three empty control strains gave a value in 18% of cases (median 15 µM, 5th percentile 970 nM). Values in that range, when seen in few replicates, are hard to tell from nonspecific mating.

Variant W56S+S62P showed 1.3 nM (3 of 3 replicates). Variant Q27A+S62C+H98M showed 19 nM (3 of 3 replicates). Variant K36E+S62V showed 2.7 nM (3 of 3 replicates). With S25G+S62I+Q96V the result was 260 nM (2 of 3 replicates). Variant Y31W+S62H gave 11 nM (3 of 3 replicates). With K24S+S28W+S62H the result was 2.1 µM (2 of 3 replicates). For S28F+T59F+S62P, the assay gave 6.1 µM (2 of 3 replicates). Variant N35F+S62Q gave 11 nM (3 of 3 replicates).

Variant Q27A+S62C+P101M gave 3.5 µM (1 of 3 replicates). Variant S25N+W56E+S62W gave 650 pM (3 of 3 replicates). With S26F+S62H+S103T the result was 210 nM (3 of 3 replicates). For S62Q+R99F, the assay gave 4.6 nM (3 of 3 replicates). For N37V+T59A+S62N, the assay gave 21 µM (1 of 3 replicates). Variant K24E+S62R showed 49 nM (3 of 3 replicates). With L30K+S62Q+H98L the result was 5.7 nM (3 of 3 replicates). For S25R+S28F+S62F, the assay gave 4.4 µM (2 of 3 replicates).

For N35H+S62M+Y97V, the assay gave nd (0 of 3 replicates). With K24D+A57E+S62Q the result was 12 nM (3 of 3 replicates). For R34Q+S62H+S103A, the assay gave nd (0 of 3 replicates). For Q27T+S62K, the assay gave 19 nM (3 of 3 replicates). For S26R+S62I, the assay gave 83 nM (3 of 3 replicates). For N35A+N37A+S62H, the assay gave 46 nM (3 of 3 replicates). Variant K36F+T59F+S62F showed 50 nM (3 of 3 replicates). Variant S26V+A40D+S62A showed nd (0 of 3 replicates).

For Q27F+A40V+S62F, the assay gave nd (0 of 3 replicates). Variant A57M+S62M showed nd (0 of 3 replicates). Variant R34A+S62Y+L100I gave 3.2 nM (3 of 3 replicates). Variant K24R+E61L+S62Y gave 29 nM (3 of 3 replicates). For V29D+S62Y, the assay gave 8.8 nM (3 of 3 replicates). Variant S62A+Q96A+H98A gave 4.1 nM (3 of 3 replicates). With Q27I+V29K+S62W the result was 18 nM (3 of 3 replicates). For L30R+S62T+L102V, the assay gave 81 nM (3 of 3 replicates).

With N35Y+S62H+S103V the result was 32 nM (3 of 3 replicates). With V29Y+S62I+Q96C the result was 21 nM (3 of 3 replicates). Variant V39N+E61S+S62P gave 910 nM (1 of 3 replicates). For Y31I+T59H+S62M, the assay gave nd (0 of 3 replicates). For S62V+Q96I+R99G, the assay gave 79 nM (3 of 3 replicates). For S33Q+S62C+Q95C, the assay gave 3.6 µM (1 of 3 replicates). For K24W+E61N+S62K, the assay gave nd (0 of 3 replicates). With S28W+S33P+S62G the result was 99 nM (3 of 3 replicates).

For S62F+H98Q, the assay gave 190 nM (3 of 3 replicates). Variant S62F gave 46 nM (3 of 3 replicates). Variant S28Y+A40G+S62T showed 91 µM (1 of 3 replicates). For S26Q+S58R+S62C, the assay gave nd (0 of 3 replicates). Variant N35V+W56R+S62T gave 78 nM (3 of 3 replicates).

The closing 6 entries, repeated:

changes,Kd,replicates with signal
S28W+S33P+S62G,99 nM,3/3
S62F+H98Q,190 nM,3/3
S62F,46 nM,3/3
S28Y+A40G+S62T,91 µM,1/3
S26Q+S58R+S62C,nd,0/3
N35V+W56R+S62T,78 nM,3/3

Parent in this assay: reference entry 4.4 nM, copy in this library 48 nM.